Assay results as given in PubChem BioAssay AID588590 (National Center for Advancing Translational Sciences (NCATS), 2011).
Only a part is listed here, and it is no random draw. Inconclusive results are not listed. Where a call stands in place of a potency, no number is given. Activity calls are given as the source filed them. The call rests on the fitted dose curve; in most records, active means well fitted inhibition curve with a large enough effect; inconclusive means small, poorly fitted or top-dose-only effect, or another doubt; inactive means no such curve, though single readings can be large or run the other way.

By UniProt entry, the sequences of proteins in these tests, tags left out.
UniProt Q9UNA4, whole entry: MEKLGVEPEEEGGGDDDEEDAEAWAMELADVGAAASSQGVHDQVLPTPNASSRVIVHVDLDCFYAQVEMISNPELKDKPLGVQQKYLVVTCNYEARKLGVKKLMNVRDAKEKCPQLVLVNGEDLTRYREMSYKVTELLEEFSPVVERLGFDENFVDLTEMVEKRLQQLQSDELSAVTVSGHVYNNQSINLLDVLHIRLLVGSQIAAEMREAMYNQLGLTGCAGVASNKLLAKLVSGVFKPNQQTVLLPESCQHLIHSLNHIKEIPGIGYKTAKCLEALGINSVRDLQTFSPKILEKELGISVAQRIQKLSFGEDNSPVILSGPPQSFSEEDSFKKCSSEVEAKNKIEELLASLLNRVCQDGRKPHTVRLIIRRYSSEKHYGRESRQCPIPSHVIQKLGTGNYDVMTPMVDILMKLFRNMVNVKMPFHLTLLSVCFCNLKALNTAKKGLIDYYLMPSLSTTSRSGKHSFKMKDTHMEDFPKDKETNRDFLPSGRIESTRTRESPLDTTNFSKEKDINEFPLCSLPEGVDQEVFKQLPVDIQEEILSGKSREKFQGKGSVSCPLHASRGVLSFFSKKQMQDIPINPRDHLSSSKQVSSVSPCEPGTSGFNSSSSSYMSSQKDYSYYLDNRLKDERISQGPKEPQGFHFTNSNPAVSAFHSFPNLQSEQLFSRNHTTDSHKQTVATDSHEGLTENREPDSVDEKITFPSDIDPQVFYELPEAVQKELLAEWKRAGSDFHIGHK

Target: DNA polymerase iota (Homo sapiens) (UniProt Q9UNA4)
Test: qHTS for Inhibitors of Polymerase Iota
Details: Pol iota fluorescent replication assay, 10 min; series mostly up to 115 µM
Potency means the concentration at half of the fitted maximal effect.

Structure (SMILES) | Potency
Nc1ccc2c(ccc3cccnc32)n1.O=[N+]([O-])c1cc([N+](=O)[O-])c(O)c([N+](=O)[O-])c1 | inactive
CCOC(=O)c1ccc(NP(C)(=O)Oc2ccc(Cl)cc2)cc1 (stereo unspecified) | inactive
CP(=O)(OC12CC3CC(CC(C3)C1)C2)OC12CC3CC(CC(C3)C1)C2 | inactive
COc1ccccc1OP(C)(=O)Nc1ccccc1Br (stereo unspecified) | inactive
CC(C)(C)c1ccc(OP(C)(=O)O)cc1 | inactive
CP(=O)(Nc1ccc(Cl)cc1)Oc1ccc(F)cc1 (stereo unspecified) | inactive
CN(C)C(=O)c1c([N+](=O)[O-])cc([N+](=O)[O-])cc1[N+](=O)[O-] | inactive
CCN(CC)CC(O)COC(=O)C(O)(c1ccccc1)C1CCCCC1 (stereo unspecified) | inactive
COc1ccc(OP(C)(=O)Nc2ccc(Br)cc2)cc1 (stereo unspecified) | inactive
N#[O+].[C-]#N.[C-]#N.[C-]#N.[C-]#N.[C-]#N.[Fe+2].[Na+].[Na+] | inactive
COc1ccccc1OP(C)(=O)Nc1c(C)n(C)n(-c2ccccc2)c1=O (stereo unspecified) | inactive
O=C(OCCCN1CCCC1)C(O)(c1ccccc1)C1CCCCC1 (stereo unspecified) | inactive
CP(=O)(Oc1ccccc1)N1CCOC1=O (stereo unspecified) | inactive
CCc1ccc(OP(C)(=O)Nc2cccnc2)cc1 (stereo unspecified) | inactive
Cc1c(NP(C)(=O)Oc2ccc(C(C)C)cc2)c(=O)n(-c2ccccc2)n1C (stereo unspecified) | inactive
CP(=O)(Nc1ccccn1)Oc1ccccc1 (stereo unspecified) | inactive
COc1ccccc1OP(C)(=O)Nc1ccc(C)cc1C (stereo unspecified) | inactive
CCc1ccc(OP(C)(=O)O)cc1 | inactive
COc1ccccc1OP(C)(=O)Nc1ccc(Br)cc1 (stereo unspecified) | inactive
CN(C)CCOC(=O)C(O)(c1ccccc1)C1CCCC1 (stereo unspecified) | inactive
CP(=O)(Nc1ccc(Cl)cc1Cl)Oc1ccccc1 (stereo unspecified) | inactive

Structure (SMILES) | Potency
CCCCCCCCCCCCCCCC1C[N+](C)(C)CCOP(C)(=O)O1 (stereo unspecified) | inactive
CP(=O)(OCCOc1ccccc1)OCCOc1ccccc1 | inactive
Cc1cc(C)cc(OP(C)(=O)Nc2cccc(C(F)(F)F)c2)c1 (stereo unspecified) | inactive
COc1ccccc1OP(C)(=O)Nc1ccc(C)c(C)c1 (stereo unspecified) | inactive
COc1ccc(OP(C)(=O)Nc2ccccc2Br)cc1 (stereo unspecified) | inactive
Cc1c([N+](=O)[O-])cc([N+](=O)[O-])c(Br)c1[N+](=O)[O-] | inactive
CCN(CC)CCCOC(=O)C(O)(c1ccccc1)C1CCCCC1 (stereo unspecified) | inactive
CP(=O)(Nc1ccccc1)Oc1ccc(F)cc1 (stereo unspecified) | inactive
CCCCCOc1ccc(NP(C)(=O)Oc2ccc(Cl)cc2Cl)cc1 (stereo unspecified) | inactive
CCOC(=O)c1ccc(NP(C)(=O)Oc2ccc(F)cc2)cc1 (stereo unspecified) | inactive
COc1ccc(OP(C)(=O)Nc2ccc(SC(F)(F)F)cc2)cc1 (stereo unspecified) | inactive
CP(=O)(Nc1ccccc1F)Oc1ccccc1 (stereo unspecified) | inactive
CC(C)c1ccc(OP(C)(=O)Nc2ccc(SC(F)(F)F)cc2)cc1 (stereo unspecified) | inactive
CP(=O)(Nc1ccc2c(c1)OCCO2)Oc1ccccc1 (stereo unspecified) | inactive
Cc1ccccc1NP(C)(=O)Nc1ccccc1C | inactive
CP(=O)(Nc1ccc(SC(F)(F)F)cc1)Oc1ccc(F)cc1 (stereo unspecified) | inactive
CCOP(C)(=S)SCC(=O)NC(C)(CC)C(=O)O (stereo unspecified) | inactive
O=[N+]([O-])c1ccc(OP2(=O)COCCO2)cc1 (stereo unspecified) | inactive
Cc1cc(-c2cccc3ccccc23)c(C)cn1.O=[N+]([O-])c1cc([N+](=O)[O-])c(O)c([N+](=O)[O-])c1 | inactive
Cc1c(C(c2ccc3c(c2)OCO3)c2c(C)n(C)n(-c3ccccc3)c2=O)c(=O)n(-c2ccccc2)n1C.O=[N+]([O-])c1cc([N+](=O)[O-])c(O)c([N+](=O)[O-])c1 | inactive
COc1ccc(OP(C)(=O)Nc2cccc(Br)c2)cc1 (stereo unspecified) | inactive

Structure (SMILES) | Potency
CN(C)CCOC(=O)C(O)(c1ccccc1)C1CCCCC1 (stereo unspecified) | inactive
COc1ccc(NP(C)(=O)Oc2ccccc2OC)cc1 (stereo unspecified) | inactive
CN1CCCCC1COC(=O)C1(O)c2ccccc2CCc2ccccc21 (stereo unspecified) | inactive
CCCOc1ccc(NP(C)(=O)Oc2ccc(Cl)cc2)cc1 (stereo unspecified) | inactive
CP(=O)(Nc1ccc(SC(F)(F)F)cc1)Oc1ccccc1 (stereo unspecified) | inactive
CC1=C2N=C(C=C3N=C(C(C)=C4[N-][C@@](C)([C@@H]5N=C1[C@](C)(CCC(=O)NC[C@@H](C)OP(=O)([O-])O[C@H]1[C@@H](O)[C@@H](n6cnc7cc(C)c(C)cc76)O[C@@H]1CO)[C@H]5CC(N)=O)[C@@](C)(CC(N)=O)[C@@H]4CCC(N)=O)[C@@](C)(CC(N)=O)[C@@H]3CCC(N)=O)C(C)(C)[C@@H]2CCC(N)=O.[C-]#N.[Co+3] | active: 20 µM
O=[N+]([O-])c1cc([N+](=O)[O-])c(Nc2nnnn2CCO)c([N+](=O)[O-])c1 | inactive
O=[N+]([O-])c1cc([N+](=O)[O-])c(-c2cnn(-c3ccccc3)c2)c([N+](=O)[O-])c1 | inactive
Cc1nc2ccc3ccccc3c2s1.O=[N+]([O-])c1cc([N+](=O)[O-])c(O)c([N+](=O)[O-])c1 | inactive
O=[N+]([O-])c1cc([N+](=O)[O-])c(-n2nnc3ccccc32)c([N+](=O)[O-])c1 | inactive
Cc1ccc(C)c(NP(C)(=O)Oc2ccccc2)c1 (stereo unspecified) | inactive
Cc1cc(C)cc(OP(C)(=O)Nc2ccccn2)c1 (stereo unspecified) | inactive
CP(=O)(Nc1cccc(Br)c1)Oc1ccccc1 (stereo unspecified) | inactive
COc1ccccc1OP(C)(=O)Nc1cccc(Br)c1 (stereo unspecified) | inactive
CCOC(=O)c1ccc(NP(C)(=O)Oc2cc(C)cc(C)c2)cc1 (stereo unspecified) | inactive
Cc1cc(C)cc(OP(C)(=O)Nc2ccc(C)cc2C)c1 (stereo unspecified) | inactive
CC1=NCCc2c1[nH]c1ccccc21.O=[N+]([O-])c1cc([N+](=O)[O-])c(O)c([N+](=O)[O-])c1 | inactive
COc1ccccc1OP(C)(=O)Nc1ccc(C)cc1 (stereo unspecified) | inactive
Cc1ccc(NP(C)(=O)Oc2ccccc2)c(C)c1 (stereo unspecified) | inactive
CCOC(=O)c1ccc(NP(C)(=O)Oc2ccccc2)cc1 (stereo unspecified) | inactive
Cc1cc(C)cc(OP(C)(N)=O)c1 (stereo unspecified) | inactive

Structure (SMILES) | Potency
COc1ccccc1OP(C)(=O)Nc1cc(Cl)ccc1C (stereo unspecified) | inactive
O=[N+]([O-])c1ccc2c(c1)C=Nc1ccccc1O2 | inactive
CC(C)(C)c1ccc(OP(C)(=O)Nc2ccc(SC(F)(F)F)cc2)cc1 (stereo unspecified) | inactive
Cc1cccc(C)c1OP(C)(N)=O (stereo unspecified) | inactive
CCN(CC)CCCOC(=O)C(O)(c1ccccc1)c1ccccc1 | inactive
CCOC(=O)c1ccc(NP(C)(=O)Oc2ccc(OC)cc2)cc1 (stereo unspecified) | inactive
O=[N+]([O-])c1cc([N+](=O)[O-])c(O)c([N+](=O)[O-])c1.c1ccc(Oc2ccncc2)cc1 | inactive
CCOP(C)(=S)SCC(=O)NC(C)C(=O)O (stereo unspecified) | inactive
CP(=O)(Nc1ccccn1)Oc1ccc(Cl)cc1 (stereo unspecified) | inactive
Cc1cccc(C)c1OP(C)(=O)Nc1ccc(SC(F)(F)F)cc1 (stereo unspecified) | inactive
CP(=O)(Nc1ccc(SC(F)(F)F)cc1)Oc1ccc(Cl)cc1 (stereo unspecified) | inactive
CP(=O)(Oc1ccccc1)OC(c1ccccc1)C(F)(F)F (stereo unspecified) | inactive
CP(=O)(NC(=O)Nc1ccccc1)Oc1ccccc1 (stereo unspecified) | inactive
CCc1ccc(OP(C)(=O)N2CCN(c3ccc([N+](=O)[O-])cc3)CC2)cc1 (stereo unspecified) | inactive
Cc1cc(C)cc(OP(C)(=O)Nc2ccc(SC(F)(F)F)cc2)c1 (stereo unspecified) | inactive
CP(=S)(Nn1cnnc1)Oc1ccccc1 (stereo unspecified) | inactive
CP(=O)(Nc1ccccc1Br)Oc1ccccc1 (stereo unspecified) | inactive
COc1ccccc1OP(C)(=O)Nc1ccccc1 (stereo unspecified) | inactive
